From patent US12616759B2, “Uses of labeled HSP90 inhibitors” (Sloan-Kettering Institute for Cancer Research, priority 2011, dated 2026)

Test system: K562 and Mia-PaCa-2 cells

| SMILES | toxicity to K562 and Mia-PaCa-2 cells |
| --- | --- |
| Cc1ccc(NC(=O)c2ccc(CN3CCN(C)CC3)cc2)cc1Nc1nccc(-c2cccnc2)n1 [Gleevec] | toxic only to K562 cells |
| CC(C)n1nc(-c2cc3cc(O)ccc3[nH]2)c2c(N)ncnc21 [PP242] | toxic to both cells |
